Measurements as given in publication PMC10993414, “Water Quality Monitoring with the Multiplexed Assay MitoOxTox for Mitochondrial Toxicity, Oxidative Stress Response, and Cytotoxicity in AREc32 Cells” (Environmental Science & Technology, 2024).

Experiments:
[1] = experimental; ref PhysPropNCCT; cited from earlier work
[2] = experimental, ref Escher et al. 2000; cited from earlier work
[3] = test system: AREc32 cells; experiment: Cytotoxicity with ImageXpress high-content imaging, MitoOxTox; conditions: AREc32, 24 h exposure
[4] = test system: Nrf2-mediated oxidative stress response pathway (ARE) in AREc32 cells; experiment: Oxidative stress response, luciferase reporter gene assay, MitoOxTox; conditions: effect concentration leading to induction ratio 1.5; AREc32, 24 h exposure
[5] = test system: AREc32 cells; experiment: Cytotoxicity (cell confluency) with IncuCyte S3 live cell imaging, MitoOxTox; conditions: AREc32, 24 h exposure
[6] = test system: mitochondrial membrane potential (MMP) in AREc32 cells; experiment: Disruption of mitochondrial membrane potential (m-MPI red/green ratio), MitoOxTox; conditions: AREc32, 24 h exposure
[7] = ref Schwarzenbach et al. 1988; cited from earlier work
[8] = 10% reduction in cell viability
[9] = logarithm of IC10, Corning plates

| Structure (SMILES) | log Kow [L/L] [1] [L/L] | log Dlipw (pH 7.4) [2] | Cytotoxicity ImageExpress IC10 [3, 8] [µM] | Cytotoxicity ImageExpress log(IC10 (M)) [3, 9] [M] | Oxidative stress response ECIR1.5 [4] [mM] | Cytotoxicity Incucyte IC10 [5, 8] [µM] | Cytotoxicity Incucyte log(IC10 (M)) [5, 9] [M] | MMP inhibition EC10 ([6]; 10% reduction of MMP) [µM] | MMP inhibition log(EC10 (M)) ([6]; logarithm of EC10) [M] | pKa (Acid) [7] |
| --- | --- | --- | --- | --- | --- | --- | --- | --- | --- | --- |
| Cc1cc([N+](=O)[O-])cc([N+](=O)[O-])c1O | 2.13 | 2.35 | 117 | -3.93 | > 1.26 | 76.4 | -4.12 | 6.01 | -5.22 | – |
| O=[N+]([O-])c1ccc(O)c([N+](=O)[O-])c1 [2,4-Dinitrophenol] | – | – | – | – | – | – | – | – | – | 3.9 |
